Test results from BindingDB's records for doi:10.1124/mol.64.6.1283 (Barrow Neurological Institute, 2003).

Sequences of proteins named here, by UniProt entry; tags and fusion partners are left off. A change or cut given only in a name is not applied to a line headed by its entry.
UniProt P43681: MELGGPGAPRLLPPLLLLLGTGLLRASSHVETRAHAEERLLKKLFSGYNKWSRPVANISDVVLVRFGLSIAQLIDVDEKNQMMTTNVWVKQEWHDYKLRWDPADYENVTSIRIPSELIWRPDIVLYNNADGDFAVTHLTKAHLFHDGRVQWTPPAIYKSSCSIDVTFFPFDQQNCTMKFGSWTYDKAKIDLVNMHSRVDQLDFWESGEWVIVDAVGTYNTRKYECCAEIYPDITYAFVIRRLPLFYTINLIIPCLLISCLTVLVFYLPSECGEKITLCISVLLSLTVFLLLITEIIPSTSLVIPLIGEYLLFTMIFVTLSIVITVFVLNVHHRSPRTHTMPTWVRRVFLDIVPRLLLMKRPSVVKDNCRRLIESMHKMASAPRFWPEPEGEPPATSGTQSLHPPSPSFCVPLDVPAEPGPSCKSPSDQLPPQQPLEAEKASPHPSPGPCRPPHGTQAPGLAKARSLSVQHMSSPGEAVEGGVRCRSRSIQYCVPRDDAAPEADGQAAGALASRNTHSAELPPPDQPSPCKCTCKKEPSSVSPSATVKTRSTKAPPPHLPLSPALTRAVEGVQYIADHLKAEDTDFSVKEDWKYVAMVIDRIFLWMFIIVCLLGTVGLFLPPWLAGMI

Target: Neuronal acetylcholine receptor subunit alpha-4 (Homo sapiens, UniProt P43681)

Structure (SMILES): C[N+](C)(C)CCO [2-hydroxy-N,N,N-trimethylethanaminium]
- Ki: 7 µM
